Protein sequences, listed by entry. Tags and fused reporters are not part of them. Lines headed by an entry give the natural chain unless they say otherwise; changes in a name come on top.
UniProt P23975, whole entry, looked up: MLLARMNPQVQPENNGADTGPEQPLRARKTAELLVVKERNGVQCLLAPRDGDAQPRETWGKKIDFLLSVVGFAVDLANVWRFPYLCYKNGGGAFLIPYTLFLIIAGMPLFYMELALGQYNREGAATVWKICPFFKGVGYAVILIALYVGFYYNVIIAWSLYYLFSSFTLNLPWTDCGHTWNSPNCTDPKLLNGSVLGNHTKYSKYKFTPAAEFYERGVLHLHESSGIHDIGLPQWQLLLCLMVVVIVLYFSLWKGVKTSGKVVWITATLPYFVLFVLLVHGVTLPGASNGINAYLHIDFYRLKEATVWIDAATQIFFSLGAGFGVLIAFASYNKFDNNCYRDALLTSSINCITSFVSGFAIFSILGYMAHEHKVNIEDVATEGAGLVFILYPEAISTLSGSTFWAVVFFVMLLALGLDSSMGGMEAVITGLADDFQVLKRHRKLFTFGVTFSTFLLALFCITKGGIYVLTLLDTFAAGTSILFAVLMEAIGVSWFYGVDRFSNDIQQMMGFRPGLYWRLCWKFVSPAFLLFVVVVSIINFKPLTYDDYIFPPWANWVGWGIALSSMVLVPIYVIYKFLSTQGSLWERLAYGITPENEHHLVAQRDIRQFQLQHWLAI
UniProt P28223, whole entry, looked up: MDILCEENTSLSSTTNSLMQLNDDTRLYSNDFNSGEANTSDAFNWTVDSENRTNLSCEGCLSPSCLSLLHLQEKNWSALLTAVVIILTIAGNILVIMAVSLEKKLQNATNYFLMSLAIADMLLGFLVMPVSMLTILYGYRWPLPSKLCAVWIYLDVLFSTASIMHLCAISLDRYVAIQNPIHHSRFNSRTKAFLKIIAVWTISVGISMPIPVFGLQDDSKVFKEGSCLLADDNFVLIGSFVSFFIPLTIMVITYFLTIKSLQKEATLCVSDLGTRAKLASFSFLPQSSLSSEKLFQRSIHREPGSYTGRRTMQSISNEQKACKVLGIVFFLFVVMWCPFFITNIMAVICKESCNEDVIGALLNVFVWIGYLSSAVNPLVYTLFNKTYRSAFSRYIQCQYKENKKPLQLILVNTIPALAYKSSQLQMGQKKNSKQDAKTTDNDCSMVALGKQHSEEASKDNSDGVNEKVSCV
UniProt Q96KQ7: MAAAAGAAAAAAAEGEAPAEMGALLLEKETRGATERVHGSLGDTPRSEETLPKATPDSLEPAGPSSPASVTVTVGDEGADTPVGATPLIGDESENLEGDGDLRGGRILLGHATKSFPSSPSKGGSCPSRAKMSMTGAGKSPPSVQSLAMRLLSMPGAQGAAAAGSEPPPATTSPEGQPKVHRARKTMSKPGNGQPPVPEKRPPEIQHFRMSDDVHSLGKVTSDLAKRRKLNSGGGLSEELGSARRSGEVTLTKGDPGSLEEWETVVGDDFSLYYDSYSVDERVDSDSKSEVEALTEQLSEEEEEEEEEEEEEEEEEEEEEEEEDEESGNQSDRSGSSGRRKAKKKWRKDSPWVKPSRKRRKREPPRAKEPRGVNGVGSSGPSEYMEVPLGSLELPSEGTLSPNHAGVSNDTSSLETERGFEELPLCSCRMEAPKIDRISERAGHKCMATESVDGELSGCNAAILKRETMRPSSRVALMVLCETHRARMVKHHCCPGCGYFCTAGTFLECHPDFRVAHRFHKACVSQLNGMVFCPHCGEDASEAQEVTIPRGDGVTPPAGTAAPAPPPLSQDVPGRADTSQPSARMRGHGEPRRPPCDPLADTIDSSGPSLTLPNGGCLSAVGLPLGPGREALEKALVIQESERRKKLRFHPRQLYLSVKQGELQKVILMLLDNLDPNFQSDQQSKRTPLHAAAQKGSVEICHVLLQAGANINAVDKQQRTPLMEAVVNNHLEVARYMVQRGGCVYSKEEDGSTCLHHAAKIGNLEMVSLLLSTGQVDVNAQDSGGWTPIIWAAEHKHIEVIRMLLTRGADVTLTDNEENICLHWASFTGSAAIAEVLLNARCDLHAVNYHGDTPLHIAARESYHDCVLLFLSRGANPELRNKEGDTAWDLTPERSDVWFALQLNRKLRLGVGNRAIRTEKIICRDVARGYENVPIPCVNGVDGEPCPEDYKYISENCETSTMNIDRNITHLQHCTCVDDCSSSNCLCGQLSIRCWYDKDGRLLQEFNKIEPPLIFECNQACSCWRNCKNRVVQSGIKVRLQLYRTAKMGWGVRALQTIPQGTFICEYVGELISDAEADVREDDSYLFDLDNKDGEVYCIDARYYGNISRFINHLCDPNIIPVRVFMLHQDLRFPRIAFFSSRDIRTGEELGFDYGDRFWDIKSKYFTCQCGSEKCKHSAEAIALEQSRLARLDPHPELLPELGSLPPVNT

In US11661410B2 (GLOBAL BLOOD THERAPEUTICS, INC., priority 2017, dated 2023):

Assays:
[1] = molecular target: norepinephrine transporter (NET) (Homo sapiens (Human), UniProt P23975); assay: Safety pharmacological profiling: norepinephrine transporter inhibition; format: binding; details: compound at 10 μM, in duplicate; membranes from cells expressing the transporter
serotonin 5HT2A receptor = serotonin 5HT2A receptor (Homo sapiens (Human), UniProt P28223); assay: Safety pharmacological profiling: serotonin 5HT2A receptor ligand binding; details: compound at 10 μM, in duplicate; ligand binding to cell membranes
G9a = G9a (Homo sapiens (Human), UniProt Q96KQ7); assay: G9a AlphaLISA enzymatic activity assay; format: biochemical; details: negative log of the IC50 value in molar

For `COc1cc2nc3c(c(NC4CCN(C(C)C)CC4)c2cc1OC)CCC3`, the “Norepinephrine Transporter (NET) percent inhibition” value [1] was 38% and the “Serotonin 5HT2A percent inhibition” value (serotonin 5HT2A receptor) was 21%.
`COc1cc2nc3c(c(N(C(N)=O)C4CCNCC4)c2cc1OC)CCC3` was tested, and the pIC50 (G9a) was 6.45.
